{"source": "patent US12285474B2", "about": "“Vsg-based vaccination and antibody generation platform for the treatment of diseases” (dated 2025)", "tested_on": "mice", "details": "naloxone 0.1 mg/kg s.c. 15 minutes after final fentanyl dose; unimmunized and VSG3-only immunized mice"}
{"smiles": "C=CCN1CC[C@]23c4c5ccc(O)c4O[C@H]2C(=O)CC[C@@]3(O)[C@H]1C5", "values": [{"measurement": "reversal of fentanyl-induced antinociception", "result": "completely reversed"}]}
